Target: hepatic CT-L, T-L, and PGPH activities (Mus musculus, UniProt O09061+O55234+P70195+Q60692)
Type: in vivo, nude mice
Conditions: livers of A549 tumor-bearing mice, 1 mpk i.p., 2 h after last injection

Amino acid sequences for entries named in this document (tags omitted). A change or cut given only in a name is not applied to a line headed by its entry.
UniProt O09061: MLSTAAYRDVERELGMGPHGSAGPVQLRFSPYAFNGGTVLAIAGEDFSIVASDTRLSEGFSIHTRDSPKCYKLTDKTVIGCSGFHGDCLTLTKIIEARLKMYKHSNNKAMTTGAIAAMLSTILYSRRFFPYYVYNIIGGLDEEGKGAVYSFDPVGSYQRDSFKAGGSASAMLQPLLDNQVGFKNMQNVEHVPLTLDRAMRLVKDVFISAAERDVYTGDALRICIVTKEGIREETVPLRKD
UniProt O55234: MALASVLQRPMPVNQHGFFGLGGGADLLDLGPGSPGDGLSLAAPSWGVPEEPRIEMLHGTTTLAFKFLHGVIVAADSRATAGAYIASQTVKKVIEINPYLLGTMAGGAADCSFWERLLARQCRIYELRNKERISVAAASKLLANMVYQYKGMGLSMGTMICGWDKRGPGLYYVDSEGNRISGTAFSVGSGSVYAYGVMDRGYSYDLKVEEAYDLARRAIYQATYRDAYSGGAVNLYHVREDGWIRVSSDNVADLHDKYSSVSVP
UniProt P70195: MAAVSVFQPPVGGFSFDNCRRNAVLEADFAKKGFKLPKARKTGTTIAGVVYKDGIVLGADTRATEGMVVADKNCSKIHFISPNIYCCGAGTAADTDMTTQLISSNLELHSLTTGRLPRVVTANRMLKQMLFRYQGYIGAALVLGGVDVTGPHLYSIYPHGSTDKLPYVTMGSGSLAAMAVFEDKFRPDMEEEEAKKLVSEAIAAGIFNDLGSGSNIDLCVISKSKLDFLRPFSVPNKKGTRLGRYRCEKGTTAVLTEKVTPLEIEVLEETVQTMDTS
UniProt Q60692: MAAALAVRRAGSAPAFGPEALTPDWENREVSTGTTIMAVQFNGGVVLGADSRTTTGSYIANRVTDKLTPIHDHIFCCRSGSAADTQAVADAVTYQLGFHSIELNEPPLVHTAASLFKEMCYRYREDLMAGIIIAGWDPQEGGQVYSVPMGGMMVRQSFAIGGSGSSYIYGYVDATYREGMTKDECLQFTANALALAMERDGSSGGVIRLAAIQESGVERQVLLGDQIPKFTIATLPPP

`CC(C)C[C@H](NC(=O)[C@H](Cc1ccccc1)NC(=O)c1cnccn1)B(O)O` [Bortezomib] was tested, and the “effect on liver proteasome activities (CT-L, T-L, PGPH)” value was “significantly inhibited”.

— article PMC2892826 (Cell cycle (Georgetown, Tex.), 2009)
